Read-outs that look alike come from different tables or passages of the source.
Key:
Experiment in all cases: enzyme inhibition assay
[1] = molecular target: T1, human plasma Kallikrein (human, UniProt P03952 20-638, limits assumed)
T1 construct: also called hPK; human PK

Amino acid sequences for entries named in this document (tags omitted). Residues count along the entry.
UniProt P03952, 20-638 limits assumed: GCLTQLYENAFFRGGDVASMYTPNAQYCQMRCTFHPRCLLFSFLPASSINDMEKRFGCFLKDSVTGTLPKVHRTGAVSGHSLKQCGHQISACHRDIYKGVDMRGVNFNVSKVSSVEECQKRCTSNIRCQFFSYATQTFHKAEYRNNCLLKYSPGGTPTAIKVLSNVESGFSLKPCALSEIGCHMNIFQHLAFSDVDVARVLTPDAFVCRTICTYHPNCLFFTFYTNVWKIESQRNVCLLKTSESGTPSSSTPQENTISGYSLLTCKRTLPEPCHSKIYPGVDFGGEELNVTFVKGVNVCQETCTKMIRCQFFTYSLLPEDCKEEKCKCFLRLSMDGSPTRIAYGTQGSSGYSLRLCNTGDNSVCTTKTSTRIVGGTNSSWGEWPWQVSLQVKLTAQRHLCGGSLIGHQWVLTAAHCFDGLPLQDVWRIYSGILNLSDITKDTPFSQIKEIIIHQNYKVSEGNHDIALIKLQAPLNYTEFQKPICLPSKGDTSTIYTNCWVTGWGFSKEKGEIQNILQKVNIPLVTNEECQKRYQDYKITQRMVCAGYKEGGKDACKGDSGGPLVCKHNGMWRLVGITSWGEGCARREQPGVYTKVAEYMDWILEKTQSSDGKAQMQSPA
UniProt P14272, 391-638 limits assumed: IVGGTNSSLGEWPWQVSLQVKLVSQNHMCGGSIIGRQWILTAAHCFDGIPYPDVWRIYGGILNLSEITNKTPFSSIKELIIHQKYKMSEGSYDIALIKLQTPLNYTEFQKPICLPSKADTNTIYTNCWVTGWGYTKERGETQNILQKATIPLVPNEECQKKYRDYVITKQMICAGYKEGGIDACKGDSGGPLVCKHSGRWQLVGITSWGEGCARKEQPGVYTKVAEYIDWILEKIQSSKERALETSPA

[2] = molecular target: T2, Rat plasma Kallikrein (rat, UniProt P14272 391-638, limits assumed)
T2 construct: domain: catalytic domain; also called rPK; rat PK

[3] = molecular target: T1, human plasma Kallikrein; remark: listed apart in the source
[4] = molecular target: T1, human plasma Kallikrein; remark: listed apart in the source
[5] = molecular target: T1, human plasma Kallikrein; remark: listed apart in the source

ACRWPARCVHQDLCA (3 Cys on TMB scaffold, also called PK101) [06-34]
IC50 [1]: 0.19 nM
IC50 [2]: 7.38 nM
Ki [3]: 0.128 nM

ACSWPAKCLHQDLCA (3 Cys on TMB scaffold, also called WPAK peptide) [06-34-19 (01 + 05 + R/K)]
IC50 [1]: 0.19 nM

ACFKACRVNCA (3 Cys on TMB scaffold, also called PK117) [3B3]
Ki [4]: 0.59 nM

ACFPSHDCDGRRMCA (3 Cys on TMB scaffold, also called PK116) [06-143]
Ki [5]: 1.27 nM

ACGGPQNCRTWTTCA (3 Cys on TMB scaffold, also called PK114) [06-56]
Ki [5]: 2.1 nM

ACAWPARCLTTSLCG (3 Cys on TMB scaffold, also called PK104) [1E6]
Ki [5]: 0.16 nM
